Values of other authors, collected in patent publication US7083961B1 (priority 2002, dated 2006).

Amino acid sequences for entries named in this document (tags omitted).
UniProt P20839, whole entry: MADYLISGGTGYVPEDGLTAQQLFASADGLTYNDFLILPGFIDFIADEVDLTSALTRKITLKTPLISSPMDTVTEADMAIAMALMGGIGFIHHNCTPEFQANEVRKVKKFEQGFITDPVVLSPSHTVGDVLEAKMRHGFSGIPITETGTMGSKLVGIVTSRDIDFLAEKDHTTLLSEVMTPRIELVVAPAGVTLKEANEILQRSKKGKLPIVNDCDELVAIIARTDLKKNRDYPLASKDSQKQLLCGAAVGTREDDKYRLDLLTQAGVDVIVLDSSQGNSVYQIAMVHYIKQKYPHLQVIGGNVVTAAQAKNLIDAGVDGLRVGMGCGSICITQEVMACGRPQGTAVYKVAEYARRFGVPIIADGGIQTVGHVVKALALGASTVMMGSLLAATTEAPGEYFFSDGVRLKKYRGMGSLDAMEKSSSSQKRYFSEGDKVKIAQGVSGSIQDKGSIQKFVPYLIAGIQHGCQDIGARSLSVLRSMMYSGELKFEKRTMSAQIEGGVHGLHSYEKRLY

Molecular target: human type I IMPDH (Homo sapiens, UniProt P20839)

NC(=O)c1ncn([C@@H]2O[C@H](COP(=O)(O)O)[C@@H](O)[C@H]2O)n1
Ki: 650 nM
